# Measurements published in patent US11905286B2, “Diazabicyclooctanones as inhibitors of serine beta-lactamases” (priority 2018, dated 2024).
# System: NTBC189 (K. pneumoniae strain expressing TEM-OSBL(b), CTX-M-14, OXA-48(c))
# Test: Meropenem potentiation, broth micro-dilution MIC, strain NTBC189
# Details: NTBC189, MIC of meropenem with 4 μg/mL of the labelled inhibitor, value
smiles,measurement,value
"NC(=O)[C@@H]1CC[C@@H]2CN1C(=O)N2OS(=O)(=O)O [Avibactam, avibactam, reference compound]",MIC mero + 4 μg/mL inhibitor,0.25 µg/mL
